Experimental data from PMC9772221 (Archives of biochemistry and biophysics, 2022).

System: PYCR3
Assay: Competitive
Assay type: biochemical, human
Settings: times/fold

For `O=CN1CCC[C@H]1C(=O)O` [Compound 2, N-formyl-L-proline], the “selectivity for PYCR1 over PYCR3 (Ki PYCR3 relative to Ki PYCR1)” value was ~ 10 and the “selectivity for PYCR1 over PYCR3 (Ki PYCR3 relative to Ki PYCR1)” value (listed as N-formyl-L-proline) was 10.
